{"source": "patent US20240277738A1", "about": "“GAMETOCYTOCIDAL COMPOUND” (Eberhard Karls Universität Tübingen Medizinische Fakultãt, priority 2021, published 2024)", "key": {"[1]": {"tested_on": "Plasmodium falciparum strain 3D7", "experiment": "Growth inhibition assay with asexual Plasmodium falciparum (HRP2 ELISA)", "type": "cell-based", "settings": "for IC50: Plasmodium falciparum"}, "[2]": {"tested_on": "Plasmodium falciparum strain 3D7", "experiment": "Apicoplast as target: growth inhibition with and without IPP supplementation", "type": "cell-based", "settings": "3D7, 144 h"}}, "data": [{"smiles": "CCC[C@@H]1C[C@@H](C(=O)N[C@@H]([C@H]2O[C@H](SC)[C@H](O)[C@@H](O)[C@H]2O)[C@H](C)Cl)N(C)C1", "note": "[Clindamycin]", "values": [{"measurement": "Fold differences, 6 day-assays", "setting": "[1]; IC50 3D7 versus A1-H.1, 6 days", "result": 0.4}, {"measurement": "IC50", "setting": "[1]; 3D7, 72 h, read-out: IC50, 3 day-assays, 3D7", "result": "> 18000", "unit": "nM"}, {"measurement": "IC50", "setting": "[1]; 3D7, 144 h, read-out: IC50, 6 day-assays, 3D7", "result": 5.9, "unit": "nM"}, {"measurement": "IC50", "setting": "[2]; read-out: IC50, IPP-supplemented", "result": "> 18000", "unit": "nM"}, {"measurement": "IC50", "setting": "[2]; read-out: IC50, control without IPP", "result": 6.9, "unit": "nM"}]}]}
